Measured values from publication PMC3560935 (Anesthesiology, 2011).

Amino acid sequences for entries named in this document (tags omitted). A change or cut given only in a name is not applied to a line headed by its entry.
UniProt P35372, whole entry: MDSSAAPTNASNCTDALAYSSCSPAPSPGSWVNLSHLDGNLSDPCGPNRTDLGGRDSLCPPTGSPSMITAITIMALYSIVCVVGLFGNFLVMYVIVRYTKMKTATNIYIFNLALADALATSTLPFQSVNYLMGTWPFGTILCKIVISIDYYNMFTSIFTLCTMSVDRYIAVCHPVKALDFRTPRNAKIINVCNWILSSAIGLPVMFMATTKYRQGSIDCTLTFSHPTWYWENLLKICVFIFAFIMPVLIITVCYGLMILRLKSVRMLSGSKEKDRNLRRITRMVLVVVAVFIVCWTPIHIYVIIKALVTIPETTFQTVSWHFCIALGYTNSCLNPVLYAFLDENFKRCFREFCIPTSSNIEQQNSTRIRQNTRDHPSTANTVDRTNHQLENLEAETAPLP
UniProt P41145: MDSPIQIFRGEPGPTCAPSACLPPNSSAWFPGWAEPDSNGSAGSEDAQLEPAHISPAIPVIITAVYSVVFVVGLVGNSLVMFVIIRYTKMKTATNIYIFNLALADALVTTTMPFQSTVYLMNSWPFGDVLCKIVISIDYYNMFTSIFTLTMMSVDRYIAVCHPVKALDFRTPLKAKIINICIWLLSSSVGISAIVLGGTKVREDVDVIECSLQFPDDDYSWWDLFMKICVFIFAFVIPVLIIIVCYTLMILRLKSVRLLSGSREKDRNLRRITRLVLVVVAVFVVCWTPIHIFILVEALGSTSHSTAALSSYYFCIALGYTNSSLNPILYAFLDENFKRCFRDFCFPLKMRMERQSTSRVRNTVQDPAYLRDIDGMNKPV

Columns and labels:
[1] = biological target: human mu opioid receptor (Homo sapiens, UniProt P35372)
[2] = biological target: human kappa opioid receptor (Homo sapiens, UniProt P41145)

Q: Which “inhibition of 3H-diprenorphine mu receptor binding (in words)” value [1] does the source give for `CO[C@]12CC[C@@]3(C[C@@H]1[C@](C)(O)C(C)(C)C)[C@H]1Cc4ccc(O[C@@H]5O[C@H](C(=O)O)[C@@H](O)[C@H](O)[C@H]5O)c5c4[C@@]3(CCN1CC1CC1)[C@H]2O5` [Buprenorphine-3-glucuronide, buprenorphine-3-glucuronide] here?
A: high affinity, with a Ki in the picomolar range

Q: What about the Ki ([1]; read-out: apparent Ki, Mu) of the same compound?
A: 4.9 ± 2.7 pM

Q: What about the “apparent Ki, Kappa” value [2] of the same compound?
A: N.B.
